Target: human μ-opiate receptor (Homo sapiens, UniProt P35372)
Experiment: Affinity to the human μ-opiate receptor, [3H] naloxone displacement (SPA)
Details: test substance 1 μM; inhibition of specific binding of [3H] naloxone; CHO-K1 membrane preparation

The chains behind the UniProt entries cited, without tags or fusion partners.
UniProt P35372, whole entry, looked up: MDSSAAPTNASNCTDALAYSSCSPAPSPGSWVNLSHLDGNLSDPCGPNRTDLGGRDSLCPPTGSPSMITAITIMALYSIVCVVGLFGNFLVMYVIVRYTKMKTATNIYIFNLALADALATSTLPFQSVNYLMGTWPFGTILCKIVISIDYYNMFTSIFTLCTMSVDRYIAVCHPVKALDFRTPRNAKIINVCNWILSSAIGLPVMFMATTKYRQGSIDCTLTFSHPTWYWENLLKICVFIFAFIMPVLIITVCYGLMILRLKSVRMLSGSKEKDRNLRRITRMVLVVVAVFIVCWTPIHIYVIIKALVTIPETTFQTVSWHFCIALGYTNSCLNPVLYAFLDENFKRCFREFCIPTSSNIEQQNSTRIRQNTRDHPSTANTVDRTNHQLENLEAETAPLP

Structure (SMILES)	μ-Opioid receptor [1 μM] % Inhibition
O=C(CC1CCCCN1S(=O)(=O)c1cccc(C(F)(F)F)c1)N1CCC2(CC1)CCC(c1cccc(F)c1)(N1CCCC1)CC2 (stereo not shown) [CC-01, 1-[3-(3-Fluorophenyl)-3-pyrrolidin-1-yl-9-azaspiro[5.5]undecan-9-yl]-2-[1-[[3-(trifluoromethyl)phenyl]sulfonyl]-piperidin-2-yl]-ethanone]	12%
COc1cc(C)c(S(=O)(=O)N2CCCCC2CCCC(=O)N2CCC3(CC2)CCC(c2cccc(F)c2)(N2CCCC2)CC3)c(C)c1 (stereo not shown) [CC-02, 1-[3-(3-Fluorophenyl)-3-pyrrolidin-1-yl-9-azaspiro[5.5]undecan-9-yl]-4-[1-[(4-methoxy-2,6-dimethyl-phenyl)sulfonyl]-pipereridin-2-yl]-butan-1-one]	47%
COc1cc(C)c(S(=O)(=O)N2CCCCC2COCC(=O)N2CCC3(CC2)CCC(c2cccc(F)c2)(N2CCCC2)CC3)c(C)c1 (stereo not shown) [CC-03, 1-[3-(3-Fluorophenyl)-3-pyrrolidin-1-yl-9-azaspiro[5.5]undecan-9-yl]-2-[[1-[(4-methoxy-2,6-dimethyl-phenyl)sulfonyl]-piperidin-2-yl]-methoxy]-ethanone]	37%
COc1cc(C)c(S(=O)(=O)N(CCOCC(=O)N2CCC3(CC2)CCC(c2cccc(F)c2)(N2CCCC2)CC3)C2CC2)c(C)c1 [CC-04, N-Cyclopropyl-N-[2-[2-[3-(3-fluorophenyl)-3-pyrrolidin-1-yl-9-azaspiro[5.5]undecan-9-yl]-2-oxo-ethoxy]-ethyl]-4-methoxy-2,6-dimethyl-benzenesulfonic acid amide]	78%
Cc1cccc(Cl)c1S(=O)(=O)N1CCCCC1COCC(=O)N1CCC2(CC1)CCC(c1cccc(F)c1)(N1CCCC1)CC2 (stereo not shown) [CC-05, 2-[[1-[(2-Chloro-6-methyl-phenyl)sulfonyl]-piperidin-2-yl]-methoxy]-1-[3-(3-fluorophenyl)-3-pyrrolidin-1-yl-9-azaspiro[5.5]undecan-9-yl]-ethanone]	54%
Cc1cccc(Cl)c1S(=O)(=O)N(CCOCC(=O)N1CCC2(CC1)CCC(c1cccc(F)c1)(N1CCCC1)CC2)C1CC1 [CC-06, 2-Chloro-N-cyclopropyl-N-[2-[2-[3-(3-fluorophenyl)-3-pyrrolidin-1-yl-9-azaspiro[5.5]undecan-9-yl]-2-oxo-ethoxy]-ethyl]-6-methyl-benzenesulfonic acid amide]	77%
Cc1cc(S(=O)(=O)N2CCCCC2CCC(=O)N2CCC3(CC2)CCC(c2cccc(F)c2)(N2CCCC2)CC3)c(C)cc1Cl (stereo not shown) [CC-07, 3-[1-[(4-Chloro-2,5-dimethyl-phenyl)sulfonyl]-piperidin-2-yl]-1-[3-(3-fluorophenyl)-3-pyrrolidin-1-yl-9-azaspiro[5.5]undecan-9-yl]-propan-1-one]	26%
O=C(CC(NS(=O)(=O)c1ccc2ccccc2c1)c1ccccc1)N1CCC2(CC1)CCC(c1cccc(F)c1)(N1CCCC1)CC2 (stereo not shown) [CC-08, N-[3-[3-(3-Fluorophenyl)-3-pyrrolidin-1-yl-9-azaspiro[5.5]undecan-9-yl]-3-oxo-1-phenyl-propyl]-naphthalene-2-sulfonic acid amide]	86%
Cc1cccc(Cl)c1S(=O)(=O)N(CCOCC(=O)N1CCC2(CC1)CCC(c1cccs1)(N(C)C)CC2)C1CC1 [CC-09, 2-Chloro-N-cyclopropyl-N-[2-[2-(3-dimethylamino-3-thiophen-2-yl-9-azaspiro[5.5]undecan-9-yl)-2-oxo-ethoxy]-ethyl]-6-methyl-benzenesulfonic acid amide]	102%
CN(C)C1(c2cccs2)CCC2(CCN(C(=O)CC3CCCCN3S(=O)(=O)c3cccc(C(F)(F)F)c3)CC2)CC1 (stereo not shown) [CC-10, 1-(3-Dimethylamino-3-thiophen-2-yl-9-azaspiro[5.5]undecan-9-yl)-2-[1-[[3-(trifluoromethyl)phenyl]sulfonyl]-piperidin-2-yl]-ethanone]	102%

Source: patent US8278319B2, “Substituted spiroamine compounds” (Gruenenthal GmbH, priority 2008, dated 2012)
